# Values quoted from earlier work, collected in patent US20090311303A1, “BIODEGRADABLE IMPLANTS FOR BONE FUSION AND COMPOSITIONS THEREFOR” (Queensland University of Technology, priority 2006, published 2009).
# Conditions: background statement
substance,measurement,value
"BMP-2: growth factor, bone morphogenetic protein-2",rapid inactivation in vivo after,20 to 30 min
